According to patent publication US11679084B2, “Method and compositions for rendering opioids safe” (dated 2023):
Converted amounts (≈) assume the structure as drawn. Like-named read-outs stand apart in the source and are kept apart here. This is a selection: effects in other tests are not listed, and their absence says nothing.

Tests used:
[1] = cited from earlier work
[2] = Oxidation by sodium perborate with TAED in water; details: 4:1 molar ratio of sodium perborate and TAED

For `CCC(=O)N(c1ccccc1)C1CCN(CCc2ccccc2)CC1`, the solubility ([1]; neutral pH) is listed as 2 grams per liter, the solubility ([1]; pH=5.7) is listed as 65 g/L (≈ 193 mM) and the “consumption on treatment with oxidizer” value [2] is listed as “rapidly consumed”.
